Paper PMC5715260

Legend:
Test in all cases: native gel or EMSA; purified TTR (0.5 uM) incubated with human RBP (0-4 uM) at 4 °C for 2 h; free and RBP-bound TTR separated by native PAGE (10%), western blot with anti-TTR and ECL; Kd by Scatchard analysis assuming a 1:2 TTR:RBP complex; low TTR/RBP molar ratio
[1] = biological target: pigC/crocTTR (Crocodylus porosus TTR with the C-terminal sequence changed to that of S. scrofa TTR) (Crocodylus porosus | Sus scrofa) (UniProt O55245)
[2] = biological target: pigC/huTTR (human TTR with the C-terminal sequence changed to that of Sus scrofa TTR) (human | Sus scrofa)
[3] = biological target: xenoN/pigC/huTTR (human TTR with the N-terminal and C-terminal sequences changed to those of Xenopus laevis and S. scrofa, respectively) (Xenopus laevis | human | Sus scrofa) (UniProt B7ZS96)

Human retinol binding protein (RBP) (from UniProt P02753 19-201) (natural protein)
Kd [1]: 310 nM | Kd [2]: 3.2 µM | Kd [3]: 1530 nM
